{"source": "patent US20210363152A1", "about": "“AMINOAZINE AMIDES” (Hoffmann-La Roche Inc., priority 2018, published 2021)", "target": "Autotaxin enzyme (ATX) (Homo sapiens, UniProt Q13822)", "test": "In vitro ATX assay (enzymatic ATX inhibition, LPC 14:0 substrate, choline oxidase/HRP absorbance readout)", "details": "read-out: ATX IC50, 0.3 mM LPC 14:0, 37° C., 4 hours, absorbance 555 nm", "experimental": "• Assay buffer: 100 mM Tris-HCl, pH 9.0, 500 mM NaCl, 5 mM MgCl2, 30 μM CoCl2, 0.05% Triton X-100 • Assay buffer II: 4.5 mM 4-AAP, 2.7 mM TOOS, 21.2 U/mL HRP, 3 U/mL CO, In 50 mM Tris-HCl pH 8.0, 4.5 mM MgCl2\nA compound preparation plate (Nunc 249944) was prepared by adding 30 mM stock solution (in DMSO) of test compound and performing a serial full-log dilution down to 30 nM. Two μL/well were transferred from the first compound prep plate to a compound dilution plate (Corning, 3641) and 198 μL assay buffer I was added for a […].\nA 10 ng/mL solution of ATX was prepared by diluting in assay buffer I, and 80 μL/well were added to the assay plate (Corning, 3641); negative control wells contained 80 μL/well assay buffer I only (no ATX). Ten μL/well from the compound dilution plate (containing serially diluted test compound or DMSO) were added to the assay plate, which was then incubated at 37° C. for 15 minutes. A solution of LPC 14:0 was prepared in assay buffer I at 3 mM and 10 μl/well were added to the assay plate, for a final concentration of 0.3 mM LPC, and returned to 37° C. incubator for 4 hours. After 4 hour incubation, 100 μL/well of assay buffer II was added to all wells of the assay plate. The plate was incubated at RT for 15 minutes, prior to reading on FlexStation in absorbance mode, 555 nm. […]", "data": [{"smiles": "O=C(c1cnc(NCc2cc(CC3CC3)cc(OC(F)(F)F)c2)nc1)N1CCC12COC2", "values": [{"measurement": "IC50", "result": "< 100", "unit": "nM"}]}]}
